Each structure is given as a SMILES string. pIC50: −log10 of the molar value.

The target in the test is T1, HDAC10 (Homo sapiens, UniProt Q969S8).
T1 sequence (Q969S8 1-669): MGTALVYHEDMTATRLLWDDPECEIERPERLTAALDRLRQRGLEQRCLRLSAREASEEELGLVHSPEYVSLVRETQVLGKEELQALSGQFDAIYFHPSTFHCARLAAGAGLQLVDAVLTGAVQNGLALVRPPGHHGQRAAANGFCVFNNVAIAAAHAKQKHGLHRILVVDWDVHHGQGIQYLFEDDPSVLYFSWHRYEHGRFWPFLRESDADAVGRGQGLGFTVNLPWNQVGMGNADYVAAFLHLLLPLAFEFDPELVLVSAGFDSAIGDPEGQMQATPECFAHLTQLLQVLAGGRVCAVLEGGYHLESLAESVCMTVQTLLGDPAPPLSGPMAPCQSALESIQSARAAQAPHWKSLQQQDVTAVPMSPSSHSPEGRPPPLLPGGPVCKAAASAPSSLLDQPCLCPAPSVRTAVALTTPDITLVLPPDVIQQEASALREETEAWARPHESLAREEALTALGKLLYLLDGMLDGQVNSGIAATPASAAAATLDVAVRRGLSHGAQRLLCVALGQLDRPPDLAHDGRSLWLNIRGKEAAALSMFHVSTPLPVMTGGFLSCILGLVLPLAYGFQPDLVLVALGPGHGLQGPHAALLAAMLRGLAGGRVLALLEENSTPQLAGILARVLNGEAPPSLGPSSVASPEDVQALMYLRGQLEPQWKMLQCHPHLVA
Briefly: Inhibition of histone deacetylase isoforms, HDAC10.

Consider `O=C(CCCCCCC(=O)Nc1ccccc1)NO` [SAHA], for which the negative logarithm of the IC50 (pIC50) is 6.82.

As a reminder, the pIC50 is the negative decadic logarithm of the IC50, by convention in mol/L. A higher pIC50 goes with a small IC50.

For the origin of these results see patent publication US8637702B2, “Derivatives of N-hydroxybenzamide for treating HIV infections” (Italfarmaco S.p.A., priority 2009, dated 2014).
